Assay: Body weight change of mice after URT (intranasal, 10 μl) treatment
Conditions: Study 1B: dose range 0.005 nmoles-5 nmoles, then Udorn challenge

Substance: PEG-[Arg]4-Ser-Ser-Pam2Cys
- weight loss relative to baseline: no significant weight loss
